The values that follow come from patent publication US20110256072A1, “FOOD AND COMPOSITION EACH COMPRISING PHOSPHORYLATED SACCHARIDE, POLYPHENOL AND FLUORIDE” (EZAKI GLICO CO., LTD., priority 2008, published 2011).

One data set concerns dental caries. The following applies: cited from earlier work.
The nature of data set [1]: Change over time of pH and soluble calcium in remineralization solutions with addition of hydroxyapatite crystal nuclei. Format: physicochemical. The following applies: in combination with POs-Ca and 0.001% by weight polyphenol; 10 ppm fluoride; pH 6.5, 37° C.

Like-named read-outs stand apart in the source and are kept apart here.

Regarding Sodium silicofluoride, in the data set with dental caries (Systemic application, addition of fluoride to city water, 0.6-1 ppm, Permanent tooth), the Inhibition rate was 40-60%. Take Monofluorophosphate: in the data set with dental caries (Fluoride added dentifrice, 1000 ppm), the Inhibition rate was 15-20%. With monofluorophosphoric acid, the “solubility of both calcium ions and fluoride ions” value in data set [1] is on record as “can be maintained in a neutral range”.
